Data on one molecule can be found in ChEMBL document CHEMBL6134903, “Challenging triple negative breast cancer through HDAC6 selective inhibition: Novel cap-group identification, structure-activity relationships, computational and biological studies” (Eur J Med Chem, 2025).

For the test, the target named is T1, Protein deacetylase HDAC6 (Homo sapiens) (UniProt Q9UBN7).
T1 sequence (whole entry): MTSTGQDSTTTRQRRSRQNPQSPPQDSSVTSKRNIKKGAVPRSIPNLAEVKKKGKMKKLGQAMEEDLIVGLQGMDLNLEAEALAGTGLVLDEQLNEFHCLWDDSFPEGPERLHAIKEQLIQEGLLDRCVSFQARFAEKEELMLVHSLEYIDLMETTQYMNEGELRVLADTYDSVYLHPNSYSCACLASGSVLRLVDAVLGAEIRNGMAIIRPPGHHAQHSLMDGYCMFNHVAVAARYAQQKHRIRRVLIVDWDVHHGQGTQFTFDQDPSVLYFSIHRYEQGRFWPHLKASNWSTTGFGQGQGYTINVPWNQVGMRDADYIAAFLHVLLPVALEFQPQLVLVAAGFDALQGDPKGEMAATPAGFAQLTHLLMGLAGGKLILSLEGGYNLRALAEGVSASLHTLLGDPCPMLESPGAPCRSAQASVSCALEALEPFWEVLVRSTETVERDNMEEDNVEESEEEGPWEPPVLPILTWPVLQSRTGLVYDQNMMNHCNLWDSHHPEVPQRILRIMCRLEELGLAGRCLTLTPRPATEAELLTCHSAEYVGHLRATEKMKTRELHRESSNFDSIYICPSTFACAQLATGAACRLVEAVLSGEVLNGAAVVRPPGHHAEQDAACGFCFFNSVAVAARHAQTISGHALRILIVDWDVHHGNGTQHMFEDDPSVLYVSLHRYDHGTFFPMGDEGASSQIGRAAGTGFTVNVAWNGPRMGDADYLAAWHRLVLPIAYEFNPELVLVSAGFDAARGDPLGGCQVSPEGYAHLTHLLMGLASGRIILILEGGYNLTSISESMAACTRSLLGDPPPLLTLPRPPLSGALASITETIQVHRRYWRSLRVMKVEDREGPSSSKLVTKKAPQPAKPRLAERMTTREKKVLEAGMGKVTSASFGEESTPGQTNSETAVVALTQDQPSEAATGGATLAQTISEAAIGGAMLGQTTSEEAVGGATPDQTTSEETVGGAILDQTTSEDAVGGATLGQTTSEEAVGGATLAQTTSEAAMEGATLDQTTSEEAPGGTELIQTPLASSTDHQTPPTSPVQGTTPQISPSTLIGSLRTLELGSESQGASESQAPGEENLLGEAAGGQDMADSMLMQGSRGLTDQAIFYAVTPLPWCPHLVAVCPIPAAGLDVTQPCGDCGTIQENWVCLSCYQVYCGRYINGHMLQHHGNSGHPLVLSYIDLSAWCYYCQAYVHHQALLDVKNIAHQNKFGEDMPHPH
The settings on record: HeLa, dose 5-80 nM, time 16.0 hrs.

As for `O=C(/C=C/c1ccc(CN(CCO)CCc2c[nH]c3ccccc23)cc1)NO` [DACINOSTAT], the inhibition result was “Dose-dependent-effect”.
